# Assay results taken from patent publication US20250228861A1, “Cancer Treatments Using MTA-Cooperative PRMT5 Inhibitors” (AMGEN INC., priority 2022, published 2025).
# Assays:
# [1] = tested on: DOHH-2 endogenous MTAP-null xenografts; details: mouse, in vivo, po, 100 mg/kg
# Procedure: FIG. 10. […] Female SCID mice were implanted with DOHH-2 or BxPC-3 tumors. […] Data represent group means±SEM, n=10. Terminal DOHH-2 or BxPC-3 tumors were collected for SDMA ELISA analysis. Data represent mean±SD, n=5 for each group. STATS: P values were determined by Linear Mixed-Effects Model with a Dunnett's comparison to control; **p<0.01, ****p<0.0001.
# FIG. 11. […] (A-D.) Female SCID mice were implanted with DOHH-2 tumors. […] Mice were dosed orally (p.o.) once a day for ten days. Data represent group means±SEM, n=10. A.) Terminal DOHH-2 tumor volumes. […] C.) Disaggregated tumors were stained for γH2AX, MFI (mean florescent intensity). D.) Cardiac bleeds were performed and analyzed on ADVIA.
# [2] = tested on: HCT116 MTAP-null tumor xenografts; details: mouse, in vivo, po
# Procedure: FIG. 2: ELISA analysis of HCT116 MTAP WT and HCT116 MTAP-null contralateral tumor cells. […] Percentage of inhibition reported relative to matched vehicle. Data represent mean±SD, n=3 for each group.
# Female Athymic Nude mice were implanted with HCT116 MTAP-null or MTAP WT tumors. […] Data represents group means±SEM, n=10. […] STATS: P values were determined by Linear Mixed-Effects Model with a Dunnett's comparison to control.
compound,measurement,setting,value
Cc1cc2cc(C(=O)N(Cc3ccc(C(F)(F)F)cn3)[C@@H](C)c3ncccn3)ccc2nc1N [Compound B],circulating blood cells (ADVIA),[1],no effect on circulating blood cells
same,body weight,[2],No effects on body weight observed
